## scFv variants of Ab-14 (light chain) against a SARS-CoV-2 spike peptide

Reference: Engelhart et al. 2022, doi:10.1038/s41597-022-01779-4. File: FLAb, binding data.

Target peptide (SARS-CoV-2 spike, HR2 region): PDVDLGDISGINAS

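The starting antibody came from a phage panning campaign against this peptide. Library AAYL50 holds single substitutions and randomly drawn double and triple substitutions in the CDRs. The assay is AlphaSeq: two haploid yeast populations carry antibody and antigen on their surface. Binding brings cells together so that they mate, and sequencing counts the barcode pairs among the diploids. The ratio of observed to expected reads was calibrated, replicate by replicate, on BCL2-family standards whose Kd was known from biolayer interferometry. There are three technical replicates.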

The variants keep the heavy chain, the linker and the frameworks of Ab-14 (scFv order VH, three GGGGS repeats, VL).
VH: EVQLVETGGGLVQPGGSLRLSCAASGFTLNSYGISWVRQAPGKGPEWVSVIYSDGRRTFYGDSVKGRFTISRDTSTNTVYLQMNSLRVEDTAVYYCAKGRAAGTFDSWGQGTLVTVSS
VL: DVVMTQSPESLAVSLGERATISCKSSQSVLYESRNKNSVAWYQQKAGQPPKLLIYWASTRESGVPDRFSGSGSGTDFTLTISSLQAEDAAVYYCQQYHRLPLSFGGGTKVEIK

The parent's light chain CDRs are KSSQSVLYESRNKNSVA, WASTRES, QQYHRLPLS; each variant's own CDRs replace them letter for letter.
Every variant below is changed at E32 of the VL (sequential numbering).
Each Kd is an estimate from the mating assay, the geometric mean of the replicates in which the pair was seen; lower is stronger.
An entry "no signal" has no value in the source: the pair was not observed among the diploids in any replicate. This suggests poor binding but is not conclusive.
Nonspecific signal, from three strains lacking the peptide, appeared in 18% of pairings of library AAYL50, centred on 15 µM (5% of these signals below 970 nM); values are not corrected for it. For each scFv, signals with the empty controls are counted beside the result.
For reference, the parent read 4.4 nM as the reference entry and 48 nM as a member of this library.

CDR-L1,CDR-L2,CDR-L3,apparent Kd,detected,empty controls
KSSQSVLYTSRNKNRVA,WASTRES,QQYHFLPLS,no signal,0/3,3/9
KSSQSVLYYSWNKNSVA,WASTRES,QQYHRLPLS,27 nM,3/3,0/9
KVSQSVLYSSRNKNSVA,WASTRES,QQYHRLPLI,1.3 nM,3/3,3/9
KSSQSVLYWSRNKNSVN,WASTRES,QQYHTLPLS,17 µM,2/3,2/9
KSSKSVLYSSRNKNSVA,WMSTRES,QQYHRLPLS,260 nM,2/3,1/9
KSSQSDLYMSRNKNSVA,WASTQES,QQYHRLPLS,230 µM,1/3,3/9
KSSQSVLYVGRNKNSVA,WAWTRES,QQYHRLPLS,16 µM,3/3,4/9
KSSQSVLYKSREKNSVA,HASTRES,QQYHRLPLS,no signal,0/3,0/9
HSSQSVLYKSRNKNSVA,WAATRES,QQYHRLPLS,1.3 µM,3/3,5/9
SSSQSQLYMSRNKNSVA,WASTRES,QQYHRLPLS,47 nM,3/3,3/9
HSSQSVLYRSRNKNSVA,WASTRES,QQTHRLPLS,17 µM,2/3,3/9
KSSQSVLYCSRNKNSVA,WASTVES,QQYHRLPDS,39 µM,2/3,2/9
KSSQSVLYHSRNKNSVA,VASTRES,QQYHRKPLS,4.2 µM,2/3,1/9
KSSQSVLYASRNKNQVA,WAETRES,QQYHRLPLS,no signal,0/3,3/9
KSSQCVLYMSRNKNSVA,WASTQES,QQYHRLPLS,4.0 µM,1/3,0/9
KSSQSVLYPSRNKTSVA,SASTRES,QQYHRLPLS,8.1 nM,3/3,6/9
KSSQSFLYPSRNKNSVA,EASTRES,QQYHRLPLS,550 pM,3/3,0/9
KSSISVIYRSRNKNSVA,WASTRES,QQYHRLPLS,no signal,0/3,0/9
KSSQSSLYNSRNKNSVA,WASTRES,QQYHRVPLS,190 µM,1/3,2/9
KSSQSVLYRSRNKNSVA,WASTRES,QCYHRLLLS,15 nM,3/3,0/9
KSSQSVLYHSRNKFSVA,WASTRES,QQYHGLPLS,3.6 µM,3/3,3/9
KSSQSVLYVARNKNSVA,WSSTRES,QQYHRLPLS,83 µM,1/3,2/9
KSSCSVLYPMRNKNSVA,WASTRES,QQYHRLPLS,200 nM,3/3,2/9
KSSQSVLYPSRTKNSVA,WASTRES,QQYHRLPLS,150 nM,3/3,2/9
KSSQSVTYWSRNKNSVA,WASTRES,RQYHRLPLS,no signal,0/3,3/9
KSSQSDLYVSRNKESVA,WASTRES,QQYHRLPLS,31 nM,3/3,2/9
KSSQQVLYKSRNKNSVA,WASTRES,QQYHRLPLS,390 nM,2/3,1/9
KISQSVLYYSRNKNSVA,WASTRES,QQYHRLALS,4.6 nM,3/3,2/9
KSQQSVLYKSRNKNSVA,WASTRES,QQYHRLPDS,5.4 µM,3/3,2/9
KSSDSVLYRSRNKNSVA,WASTRES,QQYHRLPLS,no signal,0/3,0/9
KSSQSVLYCSRNKNSVA,FASTRES,QQYHRLPLS,no signal,0/3,1/9
HSYQSVLYMSRNKNSVA,WASTRES,QQYHRLPLS,1.2 µM,3/3,0/9
KSSGNVLYLSRNKNSVA,WASTRES,QQYHRLPLS,25 nM,3/3,2/9
KSSQSVLYRSRNKNSVA,WSSTRES,QQYHRLPLS,60 µM,1/3,1/9
KSSQSVLYCSRNKKSVA,WASTREK,QQYHRLPLS,no signal,0/3,2/9
KSSQSVLYWQRNKNSVA,WASTRES,QQYHHLPLS,75 nM,3/3,0/9
KSSQSVLYGSRNKNSVA,WASTMES,DQYHRLPLS,2.5 µM,3/3,3/9
KSSVDVLYMSRNKNSVA,WASTRES,QQYHRLPLS,35 nM,3/3,1/9
KSSQSVLYNSRNKNSVA,WASTFES,QQYHRLPGS,7.9 µM,3/3,7/9
KSSQVVLYTSRNKNSVA,WASTREW,QQYHRLPLS,1.8 µM,2/3,0/9
KSSQSVLYSSRNKNSVA,WASGRES,QQYERLPLS,11 µM,2/3,1/9
KSYQSVLYKSRWKNSVA,WASTRES,QQYHRLPLS,5.9 µM,2/3,1/9
KSSQMVLYGSRNKNSVA,WASNRES,QQYHRLPLS,67 nM,3/3,0/9
KSSSSVLYDSRNKNSVA,WAQTRES,QQYHRLPLS,5.2 nM,3/3,7/9
KSSQSVLYCSRTKNSVA,WASTRES,QQYHRLPLS,no signal,0/3,0/9
KSSQSVLYGSRNKNSVA,WASTRES,QQRHRLPLS,79 nM,3/3,6/9
KSSQSVLYMSRNKNSVA,WASTRES,QQPHRLPLS,920 nM,3/3,0/9
KQSQSVLYASRNKNSVA,WASTRES,QQYHRLALS,37 nM,3/3,1/9
KSSQSVLYTSRNKNSVA,WASTRES,QKAHRLPLS,no signal,0/3,0/9
KSSQSVLYVRRNKNSVA,WASTRES,QQYHRLPLQ,6.9 µM,1/3,3/9
KSSQSVLYGSRNKNSVA,WASTMES,QQYHRLPLS,no signal,0/3,0/9
KSSQSVLYRSRNKNSVY,WASTRES,QQYHRTPLS,no signal,0/3,0/9
KSFQSVLYGSRNKNSVA,WASQRES,QQYHRLPLS,23 nM,3/3,1/9
KSSQSVLYRSRNKNSVA,LASTRES,QQYHRLPYS,940 µM,1/3,5/9
KSSQSVLYWSRNKNSVA,WASTIES,QQYHRLPLG,no signal,0/3,4/9
KSSQSVLYHERNKNSMA,WASTRES,QQYHRLPLS,83 nM,3/3,0/9
KSSPSVLYWSRNKNSVA,WASTRES,WQYHRLPLS,no signal,0/3,1/9
KSSQHVLYFSRNKNSVA,WASTEES,QQYHRLPLS,no signal,0/3,2/9
KSSQSVLYVSRNKNSVA,NASTRES,QQVHRLPLS,2.2 nM,3/3,4/9
KSSQSVLYHSRNKNSVA,WASTRES,QQYMRVPLS,5.9 µM,1/3,1/9
KSSQSVLHNSRNKNSVA,WASTRES,QQYHRLPQS,50 µM,3/3,5/9
KSSQSVLYNSLNKNSVA,WASTRES,QQYHRIPLS,2.9 nM,3/3,1/9
KSSQSKLYDSRNMNSVA,WASTRES,QQYHRLPLS,4.9 nM,3/3,0/9
KSSQSVLYTARNKNSVA,WASTRMS,QQYHRLPLS,14 nM,3/3,4/9
KSSQSVLYRSRNTNSVA,WASARES,QQYHRLPLS,78 nM,3/3,0/9
KSSQSVLYVRRNKNSVA,WASTNES,QQYHRLPLS,no signal,0/3,2/9
KSSQSVLYSSRNKNSVA,WASARES,QQYHRLPLS,970 nM,3/3,4/9
KSDQEVLYKSRNKNSVA,WASTRES,QQYHRLPLS,310 nM,3/3,1/9
KTSQSVLYCSRNKNSVA,WRSTRES,QQYHRLPLS,no signal,0/3,2/9
KSSQSVLYASRNKNSVA,WASTRWS,QQYHRLPNS,no signal,0/3,0/9
KSVQSVLYQCRNKNSVA,WASTRES,QQYHRLPLS,no signal,0/3,1/9
KSSQKVLYWSRNKNSVA,WASTRES,WQYHRLPLS,no signal,0/3,0/9
KSSQSVLYDSRNKNSVA,WASHREM,QQYHRLPLS,8.3 nM,3/3,2/9
TSSQSVLYISRNKNSVA,WASTRES,KQYHRLPLS,no signal,0/3,0/9
KSSQSVLYYSRNKNRVA,WASTRES,QQLHRLPLS,no signal,0/3,0/9
WSSQSVLYMSRNKNSVA,WASTRET,QQYHRLPLS,10 µM,3/3,4/9
KSSQSVLYMSRNKNSVA,IASTSES,QQYHRLPLS,160 µM,2/3,2/9
KSSQSVLYNSPNKNSVA,WASTRES,WQYHRLPLS,no signal,0/3,0/9
KSSQSVLWKSRNKGSVA,WASTRES,QQYHRLPLS,2.4 µM,3/3,9/9

The 9 strongest on average among those seen in every replicate, once more:

| CDR-L1 | CDR-L2 | CDR-L3 | apparent Kd | detected | empty controls |
|---|---|---|---|---|---|
| KSSQSFLYPSRNKNSVA | EASTRES | QQYHRLPLS | 550 pM | 3/3 | 0/9 |
| KVSQSVLYSSRNKNSVA | WASTRES | QQYHRLPLI | 1.3 nM | 3/3 | 3/9 |
| KSSQSVLYVSRNKNSVA | NASTRES | QQVHRLPLS | 2.2 nM | 3/3 | 4/9 |
| KSSQSVLYNSLNKNSVA | WASTRES | QQYHRIPLS | 2.9 nM | 3/3 | 1/9 |
| KISQSVLYYSRNKNSVA | WASTRES | QQYHRLALS | 4.6 nM | 3/3 | 2/9 |
| KSSQSKLYDSRNMNSVA | WASTRES | QQYHRLPLS | 4.9 nM | 3/3 | 0/9 |
| KSSSSVLYDSRNKNSVA | WAQTRES | QQYHRLPLS | 5.2 nM | 3/3 | 7/9 |
| KSSQSVLYPSRNKTSVA | SASTRES | QQYHRLPLS | 8.1 nM | 3/3 | 6/9 |
| KSSQSVLYDSRNKNSVA | WASHREM | QQYHRLPLS | 8.3 nM | 3/3 | 2/9 |